Laboratory results reported in PubChem BioAssay AID453 (PCMD, 2006).
Only a part is listed here, and it is no random draw. Some of these compounds have results that are not shown, active ones among them. Active and inactive are the calls of the source. No stated cut-off is given here; in the data, active means inhibition above about 21%; inactive means the rest.

molecular target: Cathepsin B (Homo sapiens) (UniProt P07858); test: blockers of cathepsin B proteolysis – biochemical, fluorogenic substrate, primary screen (AID 453); conditions: purified cathepsin B, fluorescence, active compounds read high,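 tested at 10 µM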;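 further: 0% = enzyme with no compound and 100% = no enzyme blank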

| Structure (SMILES) | inhibition |
| --- | --- |
| O=C(OC1CN2CCC1CC2)C(CO)(c1ccccc1)c1ccccc1 (configuration not stated) | inactive: -2.83% |
| CN(C)c1cccc(C(=O)NCC2(N(C)C)CCCCC2)c1 | inactive: 5.91% |
